This note sets out measurements from US9428503B2, “Imidazo[4,5-c]quinolin-2-one compounds and their use in treating Cancer” (AstraZeneca AB, priority 2014, dated 2016).

Chains of the proteins cited; added tags and fusions are not shown. Lines headed by an entry give the natural chain unless they say otherwise; changes in a name come on top.
UniProt Q13315: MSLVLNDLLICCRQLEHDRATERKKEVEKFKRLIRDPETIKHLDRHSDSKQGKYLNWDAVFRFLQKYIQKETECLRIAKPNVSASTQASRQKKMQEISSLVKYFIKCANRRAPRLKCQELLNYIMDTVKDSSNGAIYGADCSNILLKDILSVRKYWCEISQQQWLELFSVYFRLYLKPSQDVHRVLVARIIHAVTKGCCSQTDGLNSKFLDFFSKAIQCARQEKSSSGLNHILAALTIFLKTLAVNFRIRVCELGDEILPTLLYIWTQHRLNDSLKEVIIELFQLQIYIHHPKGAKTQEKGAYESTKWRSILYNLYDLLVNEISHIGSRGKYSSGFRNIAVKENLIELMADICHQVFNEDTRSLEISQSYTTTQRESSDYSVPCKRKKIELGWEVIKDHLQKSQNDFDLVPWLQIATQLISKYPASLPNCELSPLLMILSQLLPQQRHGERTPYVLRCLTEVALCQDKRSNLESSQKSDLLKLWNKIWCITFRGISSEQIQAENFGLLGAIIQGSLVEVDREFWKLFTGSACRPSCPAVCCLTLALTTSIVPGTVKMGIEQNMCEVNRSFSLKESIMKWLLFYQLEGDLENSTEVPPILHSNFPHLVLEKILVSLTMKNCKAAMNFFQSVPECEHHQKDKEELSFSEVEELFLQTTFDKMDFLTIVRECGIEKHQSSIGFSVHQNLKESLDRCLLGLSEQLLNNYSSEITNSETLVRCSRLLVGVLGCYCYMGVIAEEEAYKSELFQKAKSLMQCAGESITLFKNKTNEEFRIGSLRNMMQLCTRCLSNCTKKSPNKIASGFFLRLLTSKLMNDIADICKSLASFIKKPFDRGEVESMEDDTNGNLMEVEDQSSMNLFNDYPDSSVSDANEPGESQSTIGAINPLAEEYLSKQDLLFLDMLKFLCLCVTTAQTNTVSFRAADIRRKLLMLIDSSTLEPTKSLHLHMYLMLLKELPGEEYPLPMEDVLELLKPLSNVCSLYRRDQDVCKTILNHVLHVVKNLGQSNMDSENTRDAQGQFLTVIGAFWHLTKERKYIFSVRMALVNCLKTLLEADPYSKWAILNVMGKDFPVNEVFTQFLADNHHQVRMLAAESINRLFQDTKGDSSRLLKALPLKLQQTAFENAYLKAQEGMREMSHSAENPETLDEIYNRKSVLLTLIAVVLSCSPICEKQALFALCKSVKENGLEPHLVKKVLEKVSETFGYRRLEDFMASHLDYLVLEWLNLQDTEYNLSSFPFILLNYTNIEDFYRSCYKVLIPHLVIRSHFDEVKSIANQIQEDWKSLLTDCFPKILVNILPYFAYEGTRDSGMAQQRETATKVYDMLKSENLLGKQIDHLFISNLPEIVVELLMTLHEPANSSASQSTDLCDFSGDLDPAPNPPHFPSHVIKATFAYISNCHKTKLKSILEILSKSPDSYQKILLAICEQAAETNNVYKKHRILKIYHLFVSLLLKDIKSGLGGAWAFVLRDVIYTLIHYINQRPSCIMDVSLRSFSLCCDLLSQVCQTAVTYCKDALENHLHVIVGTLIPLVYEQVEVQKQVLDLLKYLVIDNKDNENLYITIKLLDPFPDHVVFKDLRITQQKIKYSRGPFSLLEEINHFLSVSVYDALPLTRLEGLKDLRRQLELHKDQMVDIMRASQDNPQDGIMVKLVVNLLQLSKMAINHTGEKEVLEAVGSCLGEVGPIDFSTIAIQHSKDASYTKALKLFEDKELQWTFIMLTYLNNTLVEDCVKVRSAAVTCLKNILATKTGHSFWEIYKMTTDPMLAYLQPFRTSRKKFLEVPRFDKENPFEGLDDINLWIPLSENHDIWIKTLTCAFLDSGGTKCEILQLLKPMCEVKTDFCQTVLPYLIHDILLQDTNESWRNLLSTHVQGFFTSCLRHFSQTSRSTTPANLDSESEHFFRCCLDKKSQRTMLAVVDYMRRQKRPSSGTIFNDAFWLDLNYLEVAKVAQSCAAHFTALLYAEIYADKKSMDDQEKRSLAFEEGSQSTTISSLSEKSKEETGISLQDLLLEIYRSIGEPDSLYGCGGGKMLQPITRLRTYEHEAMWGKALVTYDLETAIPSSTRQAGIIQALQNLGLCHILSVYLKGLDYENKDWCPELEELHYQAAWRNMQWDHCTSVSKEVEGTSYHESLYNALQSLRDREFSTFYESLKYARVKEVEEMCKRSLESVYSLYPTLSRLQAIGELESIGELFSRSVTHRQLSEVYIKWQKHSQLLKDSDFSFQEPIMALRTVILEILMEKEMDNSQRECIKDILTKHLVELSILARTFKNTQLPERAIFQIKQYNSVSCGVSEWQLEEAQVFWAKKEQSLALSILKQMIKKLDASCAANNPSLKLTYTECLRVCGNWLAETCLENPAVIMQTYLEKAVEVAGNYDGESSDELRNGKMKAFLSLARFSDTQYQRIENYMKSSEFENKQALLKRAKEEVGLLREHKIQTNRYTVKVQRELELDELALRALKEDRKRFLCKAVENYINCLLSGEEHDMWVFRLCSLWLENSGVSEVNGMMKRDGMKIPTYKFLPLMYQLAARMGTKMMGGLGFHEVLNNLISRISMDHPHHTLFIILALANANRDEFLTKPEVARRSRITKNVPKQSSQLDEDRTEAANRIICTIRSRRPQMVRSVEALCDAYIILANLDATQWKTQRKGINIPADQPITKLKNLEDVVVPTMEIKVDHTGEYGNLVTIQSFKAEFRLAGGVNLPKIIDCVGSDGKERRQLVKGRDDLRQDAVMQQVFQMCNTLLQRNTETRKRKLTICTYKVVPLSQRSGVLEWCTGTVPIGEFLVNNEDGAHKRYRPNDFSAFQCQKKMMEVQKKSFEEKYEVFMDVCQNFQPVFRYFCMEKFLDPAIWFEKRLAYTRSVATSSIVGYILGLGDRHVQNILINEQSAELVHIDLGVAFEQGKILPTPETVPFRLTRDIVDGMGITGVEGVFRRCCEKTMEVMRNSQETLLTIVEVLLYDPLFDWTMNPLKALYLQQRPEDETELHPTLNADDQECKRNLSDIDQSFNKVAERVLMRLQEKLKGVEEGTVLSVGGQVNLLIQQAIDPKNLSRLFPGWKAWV
UniProt P42336, whole entry, looked up: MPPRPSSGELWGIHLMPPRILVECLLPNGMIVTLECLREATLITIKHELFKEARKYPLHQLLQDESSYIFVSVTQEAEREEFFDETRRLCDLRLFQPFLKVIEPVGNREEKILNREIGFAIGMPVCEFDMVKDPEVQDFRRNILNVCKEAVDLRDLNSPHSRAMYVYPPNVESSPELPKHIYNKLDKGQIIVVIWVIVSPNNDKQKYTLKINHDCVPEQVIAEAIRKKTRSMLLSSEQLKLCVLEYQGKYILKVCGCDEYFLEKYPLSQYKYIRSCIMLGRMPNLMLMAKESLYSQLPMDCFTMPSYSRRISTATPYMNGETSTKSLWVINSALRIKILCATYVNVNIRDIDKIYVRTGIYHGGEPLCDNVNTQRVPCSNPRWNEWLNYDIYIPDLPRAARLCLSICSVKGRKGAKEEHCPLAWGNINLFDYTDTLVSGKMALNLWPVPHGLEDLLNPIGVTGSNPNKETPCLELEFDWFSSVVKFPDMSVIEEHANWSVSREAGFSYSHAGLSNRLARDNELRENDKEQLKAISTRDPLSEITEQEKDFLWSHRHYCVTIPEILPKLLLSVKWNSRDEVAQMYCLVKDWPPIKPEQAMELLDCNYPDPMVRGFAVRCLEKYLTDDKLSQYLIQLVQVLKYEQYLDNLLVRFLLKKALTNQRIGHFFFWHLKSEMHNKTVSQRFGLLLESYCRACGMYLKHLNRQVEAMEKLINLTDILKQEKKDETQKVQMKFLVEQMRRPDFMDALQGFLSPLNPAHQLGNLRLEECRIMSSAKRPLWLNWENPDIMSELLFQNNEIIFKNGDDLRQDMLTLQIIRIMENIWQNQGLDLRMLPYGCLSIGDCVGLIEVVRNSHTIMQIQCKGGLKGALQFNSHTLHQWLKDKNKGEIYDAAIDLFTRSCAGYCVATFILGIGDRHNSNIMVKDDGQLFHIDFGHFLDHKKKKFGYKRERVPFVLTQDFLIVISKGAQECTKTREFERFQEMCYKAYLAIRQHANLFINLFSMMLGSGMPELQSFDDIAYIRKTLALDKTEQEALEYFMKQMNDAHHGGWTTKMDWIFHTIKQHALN

Structures can show the parent of a compound that is named as a salt. Some results are limits rather than exact numbers.

The target in one assay is ATM kinase (Homo sapiens (Human), UniProt Q13315). Put plainly: Assay a) ATM cellular potency assay (pATM Ser1981 in X-ray irradiated HT29 cells). In kind it is cell-based. Particulars: HT29 cells, pATM Ser1981 after X-ray irradiation; geometric mean where repeated; read-out: Assay a) ATM Cell IC50.
Consider `CO[C@H]1C[C@@H](n2c(=O)n(C)c3cnc4ccc(-c5ccc(OCCCN(C)C)nc5F)cc4c32)C1` [Example 18, 8-[6-(3-dimethylaminopropoxy)-2-fluoropyridin-3-yl]-1-(cis-3-methoxycyclobutyl)-3-methylimidazo[4,5-c]quinolin-2-one], for which the IC50 (in general, the concentration at which inhibition is half-maximal) was 0.765 nM. With `CO[C@H]1C[C@@H](n2c(=O)n(C)c3cnc4cc(F)c(-c5ccc(OCCCN6CCCC6)nc5)cc4c32)C1` [Example 27, 7-Fluoro-1-(cis-3-methoxycyclobutyl)-3-methyl-8-[6-(3-pyrrolidin-1-ylpropoxy)pyridin-3-yl]imidazo[4,5-c]quinolin-2-one], the concentration for half-maximal inhibition (IC50) turned out to be 0.418 nM. Take `Cn1c(=O)n([C@H]2CCCOC2)c2c3cc(-c4ccc(OCCCN5CCCC5)nc4)ccc3ncc21` [Example 29, 3-methyl-1-[(3S)-oxan-3-yl]-8-[6-(3-pyrrolidin-1-ylpropoxy)pyridin-3-yl]imidazo[5,4-c]quinolin-2-one]: the IC50 is 0.238 nM. Turning to `Cn1c(=O)n(C2CCOCC2)c2c3cc(-c4ccc(OCCCN5CCCC5)nc4)ccc3ncc21` [Example 30, 3-methyl-1-(oxan-4-yl)-8-[6-(3-pyrrolidin-1-ylpropoxy)pyridin-3-yl]imidazo[5,4-c]quinolin-2-one], the IC50 was found to be 1.12 nM. On to `CN(C)CCCOc1ccc(-c2ccc3ncc4c(c3c2)n(C2COC2)c(=O)n4C)c(F)n1` [Example 52, 8-[6-[3-(dimethylamino)propoxy]-2-fluoro-3-pyridyl]-3-methyl-1-(oxetan-3-yl)imidazo[4,5-c]quinolin-2-one methanesulfonic acid salt], for which the IC50 came out at 4.76 nM. Still for that read-out and setting: next, `Cn1c(=O)n([C@@H]2CCCOC2)c2c3cc(-c4ccc(OCCCN5CCCC5)nc4)ccc3ncc21` [Example 59, 3-methyl-8-[6-(3-pyrrolidin-1-ylpropoxy)-3-pyridyl]-1-[(3R)-tetrahydropyran-3-yl]imidazo[4,5-c]quinolin-2-one]: 0.233 nM.

Another assay concerns the target PI3K-α (Homo sapiens, UniProt P42336). The experiment in a line: Assay c) PI3K cellular potency assay (phospho-Akt T308 ELISA in BT474 cells). To be noted: BT474 cells, phospho-Akt T308, 2 h; geometric mean where repeated; read-out: Assay c) PI3Kα Cell IC50. The class given is cell-based.
Regarding `Cn1c(=O)n([C@@H]2CCOC2)c2c3cc(-c4ccc(OCCCN5CCCCC5)nc4)ccc3ncc21` [Example 54, 3-methyl-8-[6-[3-(1-piperidyl)propoxy]-3-pyridyl]-1-[(3R)-tetrahydrofuran-3-yl]imidazo[4,5-c]quinolin-2-one methane sulfonic acid salt], the IC50 was determined as 3470 nM. With `Cn1c(=O)n([C@H]2CCOC2)c2c3cc(-c4ccc(OCCCN5CCCCC5)nc4)ccc3ncc21` [Example 55, 3-methyl-8-[6-[3-(1-piperidyl)propoxy]-3-pyridyl]-1-[(3S)-tetrahydrofuran-3-yl]imidazo[4,5-c]quinolin-2-one], the IC50 was over 9130 nM.
